Measurements reported in patent US9499496B2, “Inhibitors of respiratory syncytial virus” (University of Kansas, priority 2012, dated 2016).
Where “and” joins values, the source holds several entries; their conditions need not be identical. Equal entries are not always repeated. Where two headings read alike, the source gives them in different places.

Sequences of proteins named here, by UniProt entry; tags and fusion partners are left off. A change or cut given only in a name is not applied to a line headed by its entry.
UniProt P21554, whole entry: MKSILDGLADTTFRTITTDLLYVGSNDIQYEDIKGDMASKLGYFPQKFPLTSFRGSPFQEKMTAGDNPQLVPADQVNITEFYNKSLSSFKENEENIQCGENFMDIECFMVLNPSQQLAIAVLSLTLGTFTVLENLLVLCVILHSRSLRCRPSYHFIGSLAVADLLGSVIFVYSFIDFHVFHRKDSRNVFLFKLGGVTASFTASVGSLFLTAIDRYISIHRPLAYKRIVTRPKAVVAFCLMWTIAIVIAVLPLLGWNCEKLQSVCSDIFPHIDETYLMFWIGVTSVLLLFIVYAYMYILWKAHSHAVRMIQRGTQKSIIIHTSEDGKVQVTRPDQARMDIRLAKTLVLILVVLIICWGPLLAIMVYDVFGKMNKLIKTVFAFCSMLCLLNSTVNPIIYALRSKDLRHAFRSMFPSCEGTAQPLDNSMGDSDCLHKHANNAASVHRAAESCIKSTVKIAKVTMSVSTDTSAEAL
UniProt P0DMS8, whole entry: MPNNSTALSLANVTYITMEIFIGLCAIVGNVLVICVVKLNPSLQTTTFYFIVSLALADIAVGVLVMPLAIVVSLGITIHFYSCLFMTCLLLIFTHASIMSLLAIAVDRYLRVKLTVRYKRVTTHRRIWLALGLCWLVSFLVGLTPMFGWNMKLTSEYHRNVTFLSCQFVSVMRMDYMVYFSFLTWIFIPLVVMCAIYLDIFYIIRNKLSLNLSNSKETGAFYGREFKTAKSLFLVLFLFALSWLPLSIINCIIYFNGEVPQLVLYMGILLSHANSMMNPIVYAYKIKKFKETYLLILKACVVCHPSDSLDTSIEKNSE
UniProt P41595, whole entry: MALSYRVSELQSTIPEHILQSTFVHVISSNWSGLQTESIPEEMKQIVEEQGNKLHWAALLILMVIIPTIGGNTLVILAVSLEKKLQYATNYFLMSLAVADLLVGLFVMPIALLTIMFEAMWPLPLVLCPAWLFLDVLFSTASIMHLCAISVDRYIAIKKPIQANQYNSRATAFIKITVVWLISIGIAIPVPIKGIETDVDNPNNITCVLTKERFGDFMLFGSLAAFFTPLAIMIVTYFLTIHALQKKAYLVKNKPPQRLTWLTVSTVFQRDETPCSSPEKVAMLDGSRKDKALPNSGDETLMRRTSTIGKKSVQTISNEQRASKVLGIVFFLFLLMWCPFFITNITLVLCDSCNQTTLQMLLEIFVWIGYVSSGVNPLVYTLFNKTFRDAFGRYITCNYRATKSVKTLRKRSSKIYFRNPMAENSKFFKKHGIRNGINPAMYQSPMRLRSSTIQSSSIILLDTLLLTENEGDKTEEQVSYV
UniProt P23975, whole entry: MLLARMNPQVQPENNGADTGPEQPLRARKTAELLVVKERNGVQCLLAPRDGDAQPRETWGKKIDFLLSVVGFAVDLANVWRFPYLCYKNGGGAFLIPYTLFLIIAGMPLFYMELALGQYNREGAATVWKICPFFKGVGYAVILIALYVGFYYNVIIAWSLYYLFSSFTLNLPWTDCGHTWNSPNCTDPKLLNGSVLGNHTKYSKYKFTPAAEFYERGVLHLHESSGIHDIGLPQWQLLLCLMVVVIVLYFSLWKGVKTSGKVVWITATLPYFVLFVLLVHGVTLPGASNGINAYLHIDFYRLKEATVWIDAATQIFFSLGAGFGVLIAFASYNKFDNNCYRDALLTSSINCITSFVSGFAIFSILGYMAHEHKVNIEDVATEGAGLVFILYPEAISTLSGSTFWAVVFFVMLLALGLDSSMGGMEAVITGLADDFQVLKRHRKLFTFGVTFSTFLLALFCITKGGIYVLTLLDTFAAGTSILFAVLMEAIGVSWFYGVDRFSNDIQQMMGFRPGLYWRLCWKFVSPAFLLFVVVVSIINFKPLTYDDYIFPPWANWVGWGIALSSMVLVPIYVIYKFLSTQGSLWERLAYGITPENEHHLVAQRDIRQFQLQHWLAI
UniProt P25105: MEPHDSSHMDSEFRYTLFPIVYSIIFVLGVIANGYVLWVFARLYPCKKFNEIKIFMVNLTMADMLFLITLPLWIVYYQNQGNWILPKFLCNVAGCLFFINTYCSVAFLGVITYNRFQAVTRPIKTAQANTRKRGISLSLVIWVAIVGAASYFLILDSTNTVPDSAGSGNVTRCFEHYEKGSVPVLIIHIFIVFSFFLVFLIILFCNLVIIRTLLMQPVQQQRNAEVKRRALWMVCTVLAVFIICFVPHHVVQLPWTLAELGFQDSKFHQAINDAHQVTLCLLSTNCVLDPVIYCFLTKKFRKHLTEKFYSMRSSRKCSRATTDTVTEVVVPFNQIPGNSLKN

Legend:
[1] = target: Cannabinoid CB1 (Homo sapiens, UniProt P21554); experiment: biochemical; conditions: read-out: Percent Inhibition
[2] = target: human adenosine A3 receptor (Homo sapiens, UniProt P0DMS8); experiment: biochemical
[3] = target: Serotonin (5-Hydroxytryptamine) 5-HT2B (Homo sapiens, UniProt P41595); experiment: biochemical; conditions: read-out: Percent Inhibition
[4] = target: Transporter, Norepinephrine (NET) (Homo sapiens, UniProt P23975); experiment: biochemical; conditions: read-out: Percent Inhibition
[5] = Solubility in RSV CPE assay media; conditions: DMEM/F12, Pen/Strep/Glutamine, 2% heat inactivated FBS
[6] = target: human platelet activating factor (Homo sapiens, UniProt P25105); experiment: biochemical
[7] = Solubility in PBS; conditions: PBS pH 7.4, room temperature (23° C.)
[8] = in vitro; conditions: human
[9] = test system: RSV; experiment: RSV CPE assay (inhibition of RSV-induced cytopathic effect, luminescent cell viability readout); type: cell-based, RSV (strain Long); conditions: antiviral activity over HEp-2 cell cytotoxicity

COCCCNC(=O)c1ccc(Cn2c(=O)c3ccccc3n(Cc3ccc(C(C)C)cc3)c2=O)cc1 [Compound A, 4-((1-(4-isopropylbenzyl)-2,4-dioxo-1,2-dihydroquinazolin-3(4H)-yl)methyl)-N-(3-methoxypropyl)benzamide]
inhibition at 10 µM [1]: 86% | inhibition at 10 µM [2]: 44% | inhibition at 10 µM [3]: 54% | PAMPA Permeability (Donor pH 5.0, Acceptor pH 7.4, 20% acetonitrile added): 718 ×10⁻⁶ cm/s | PAMPA Permeability (Donor pH 6.2, Acceptor pH 7.4, 20% acetonitrile added): 631 ×10⁻⁶ cm/s | PAMPA Permeability (Donor pH 7.4, Acceptor pH 7.4, 20% acetonitrile added): 703 ×10⁻⁶ cm/s | inhibition at 10 µM [4]: 54% | CPE Assay Media Solubility [5]: 5.1 μg/mL and 10.21 μM | inhibition at 10 µM [6]: 43% | PBS Solubility [7]: 0.18 μg/mL and 0.36 μM

COCCCNC(=O)c1ccc(Cn2c(=O)c3ccccc3n(Cc3ccc([N+](=O)[O-])cc3)c2=O)cc1 [Compound B, N-(3-methoxypropyl)-4-((1-(4-nitrobenzyl)-2,4-dioxo-1,2-dihydroquinazolin-3(4H)-yl)methyl)benzamide]
PAMPA Permeability (Donor pH 5.0, Acceptor pH 7.4, PBS, no additives): 364 ×10⁻⁶ cm/s | PAMPA Permeability (Donor pH 6.2, Acceptor pH 7.4, PBS, no additives): 349 ×10⁻⁶ cm/s | PAMPA Permeability (Donor pH 7.4, Acceptor pH 7.4, PBS, no additives): 356 ×10⁻⁶ cm/s | CPE Assay Media Solubility [5]: 1.4 μg/mL = and 2.79 μM

Cc1ccc(Cn2c(=O)n(Cc3ccc(C(=O)NCC4COC4)cc3)c(=O)c3ccccc32)cc1 [Compound F, 4-((1-(4-methylbenzyl)-2,4-dioxo-1,2-dihydroquinazolin-3(4H)-yl)methyl)-N-(oxetan-3-ylmethyl)benzamide]
CC50 [8]: 47 ± 1.9 µM | Selectivity Index (CC50/EC50) [9]: 66.1 and 41.8 | Selectivity Index (CC50/EC50) ([9]; listed as FIG. 4, entry 8): 66

COCCCNC(=O)c1ccc(Cn2c(=O)c3ccccc3n(Cc3ccc(C)cc3)c2=O)cc1 [hit compound, 4-((1-(4-methylbenzyl)-2,4-dioxo-1,2-dihydroquinazolin-3(4H)-yl)methyl)-N-(3-methoxypropyl)benzamide]
PBS Solubility [7]: 0.13 µM | Selectivity Index (CC50/EC50) [9]: ~28

NC(=O)c1ncn([C@@H]2O[C@H](CO)[C@@H](O)[C@H]2O)n1 [ribavirin, reference compound]
Selectivity Index (CC50/EC50) [9]: 3.6
